The list shows a part of the results, in another mix than the full data. Some of these compounds have results that are not shown, active ones among them. Active and inactive are the calls of the source.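 How the source made its calls: active means inhibition above a set limit, 3 SD over mean compound inhibition (cut at about 8.4% in these data); inactive means the rest.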
Assay: RAM signaling blockers in budding yeast – dse1pr::URA3 reporter, 5-FOA selection, primary screen (AID 868);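 further: 0% = DMSO-only wells with no growth and 100% = 10 µM 1-NA-PP1 full growth; inhibition rescues growth on 5-FOA so higher OD means more RAM inhibition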
Conditions: S. cerevisiae dse1pr::URA3 reporter, 5-FOA growth OD615, 2 d; at 50 µM; hits give high values; analog-sensitive cbk1-as2 kinase mutant strain
For `CN(C)c1cccc(C(=O)NCC2(N(C)C)CCCCC2)c1`, the inhibition was inactive: 0.91%. In the case of `O=C(OC1CN2CCC1CC2)C(CO)(c1ccccc1)c1ccccc1` (centres undefined), the inhibition is reported as inactive: 1.46%. In the case of `COc1cccc(C(=O)NCC2(N3CCCCC3)CCCCC2)c1`, the inhibition is reported as inactive: 0.5%. For `CCN1CCCC(OC(=O)C2(O)c3ccccc3C=Cc3ccccc32)C1` (centres undefined), the inhibition was inactive: 0.96%. In the case of `C=CCN1CCN(CCOC(=O)C(O)(c2ccccc2)c2ccccc2)CC1`, the inhibition is reported as inactive: 2.84%. For `CN(C)C1CCCC1OC(=O)C(O)(c1ccccc1)c1ccccc1` (centres undefined), the inhibition was inactive: 0.12%. For `Cc1ccccc1C(=O)NCC1(N2CCCCC2)CCCCC1`, the inhibition was inactive: 1.73%. In the case of `CC(C)N1C(=O)CC2(CCN(CCOC(=O)C(O)(c3ccccc3)c3ccccc3)CC2)C1=O`, the inhibition is reported as inactive: 1.62%. In the case of `O=C(NCC1(N2CCCCC2)CCCCC1)c1cc([N+](=O)[O-])ccc1Cl`, the inhibition is reported as inactive: -1.36%.
